# Data reported in patent publication US20220144812A1, “QUINOLINE DERIVATIVES AND THEIR USE FOR THE TREATMENT OF CANCER” (Epizyme, Inc., priority 2019, published 2022).
# The chains behind the UniProt entries cited, without tags or fusion partners. Residues count along the entry.
# UniProt Q92793, 1084-1701 limits assumed: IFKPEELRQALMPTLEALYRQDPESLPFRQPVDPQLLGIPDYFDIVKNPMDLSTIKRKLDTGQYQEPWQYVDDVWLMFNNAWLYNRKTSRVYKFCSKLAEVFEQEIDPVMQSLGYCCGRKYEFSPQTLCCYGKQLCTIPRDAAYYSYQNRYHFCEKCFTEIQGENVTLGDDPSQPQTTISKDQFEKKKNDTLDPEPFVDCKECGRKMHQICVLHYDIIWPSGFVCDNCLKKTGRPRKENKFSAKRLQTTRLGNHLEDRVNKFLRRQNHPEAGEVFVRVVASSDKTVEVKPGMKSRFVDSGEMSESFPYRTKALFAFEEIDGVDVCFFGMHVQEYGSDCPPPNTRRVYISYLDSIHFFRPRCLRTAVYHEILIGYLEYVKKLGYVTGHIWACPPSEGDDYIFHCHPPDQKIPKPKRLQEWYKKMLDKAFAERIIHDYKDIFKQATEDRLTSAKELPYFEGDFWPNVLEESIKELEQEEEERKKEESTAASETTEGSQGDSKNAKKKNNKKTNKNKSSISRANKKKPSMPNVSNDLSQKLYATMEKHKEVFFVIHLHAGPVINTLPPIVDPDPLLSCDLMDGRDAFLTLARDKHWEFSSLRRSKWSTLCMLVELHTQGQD
# UniProt Q09472, 1048-1664 limits assumed: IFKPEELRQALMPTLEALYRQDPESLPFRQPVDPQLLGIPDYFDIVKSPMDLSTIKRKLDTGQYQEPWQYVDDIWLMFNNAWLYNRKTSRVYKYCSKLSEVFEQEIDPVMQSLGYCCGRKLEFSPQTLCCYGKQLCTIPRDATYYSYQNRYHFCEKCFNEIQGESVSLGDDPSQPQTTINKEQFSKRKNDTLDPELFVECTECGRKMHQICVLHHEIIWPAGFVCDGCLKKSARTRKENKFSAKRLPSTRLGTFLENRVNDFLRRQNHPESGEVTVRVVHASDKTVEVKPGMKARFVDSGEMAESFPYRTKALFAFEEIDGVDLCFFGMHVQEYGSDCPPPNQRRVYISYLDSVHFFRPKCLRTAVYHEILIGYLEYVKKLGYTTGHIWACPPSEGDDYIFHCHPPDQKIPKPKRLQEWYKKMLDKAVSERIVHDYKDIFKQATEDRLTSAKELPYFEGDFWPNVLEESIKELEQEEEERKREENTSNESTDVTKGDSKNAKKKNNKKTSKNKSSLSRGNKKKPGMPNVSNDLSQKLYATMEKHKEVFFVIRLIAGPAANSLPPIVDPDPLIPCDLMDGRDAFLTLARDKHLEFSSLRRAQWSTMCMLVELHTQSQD
# Like-named read-outs stand apart in the source and are kept apart here.
# Assays:
# [1] = test system: H3K18Ac in HB-CLS-2 cells; test: H3K18AC in-cell western (ICW) assay
# Description: The following example describes methods and materials relating to an H3K18AC in-cell western assay. IC50 values (micromolar (μM)) are summarized in Table 1, Table 2, and Table 3 under the column labeled: “CREBBP ICW IC50 (micromolar).”
# MATERIALS: HB-CLS-2 cell line, DMEM: Ham's F12 medium (1:1 mixture), penicillin-streptomycin, heat inactivated fetal bovine serum, D-PBS, Odyssey blocking buffer, 800CW goat anti-rabbit IgG (H+L) antibody, Licor Odyssey CLx Infrared Scanner, H3K18Ac rabbit monoclonal antibody. DRAQS fluorescent probe solution (5 mM), and 100% methanol were commercially available. HB-CLS-2 adherent cells were maintained in complete growth medium (DMEM: Ham's F12 supplemented with 10% v/v heat inactivated fetal bovine serum) and cultured at 37° C. under 5% CO2.
# METHOD: Cell Treatment, ICW for detection of H3K18Ac and DNA content. HB-CLS-2 cells were seeded in assay medium (DMEM: Ham's F12 supplemented with 10% v/v heat inactivated fetal bovine serum and 1% Penicillin/Streptomycin) at a concentration of 80,000 cells per mL in a Poly-D-Lysine coated 384-well culture plates at 50 μL per well. Plates were incubated at room temperature for 30 minutes and then incubated at 37° C., 5% CO2 for additional 16-24 hours. Compounds and DMSO normalization were then added directly to the plates using a D300 Digital Dispenser and returned to the incubator at 37° C., 5% CO2 for 2 hrs. After the incubation, the contents of the plates were discarded into the appropriate waste stream and blotted on laboratory tissue to remove residual liquid. 90 μL per well of 100% ice cold methanol was added to the plates and incubated at room temperature for 15 minutes. Then methanol was then discarded into the appropriate waste stream and the plates again blotted on laboratory tissue to remove residual liquid. Plates were transferred to a Biotek 405 plate washer and washed 3 times with 100 μL per well of wash buffer (1X PBS containing 0.1% Triton X-100 (v/v)). Next, 50 μL per well of Odyssey blocking buffer with 0.1% Tween 20 (v/v) was added to each plate and incubated for 1 hour at room temperature. Blocking buffer was removed and 20 μL of primary antibody were added (α-H3K18Ac diluted 1:800 in Odyssey buffer with 0.1% Tween 20 (v/v)) and plates were incubated overnight (16 hours) at 4° C. Plates were washed 5 times with 100 μL per well of wash buffer. Next 20 μL per well of secondary antibody was added (1:400 800CW goat anti-rabbit IgG (H+L) antibody, 1:2000 DRAQ5 in Odyssey buffer with 0.1% Tween 20 (v/v)) and incubated for 1 hour at room temperature. The plates were washed 3 times with 100 μL per well wash buffer then 3 times with 100 μL per well of water. Plates were allowed to dry at room temperature then imaged on the Licor Odyssey CLx machine which measured integrated intensity at 700 nm and 800 nm wavelengths. Both 700 and 800 channels were scanned.
# [2] = test system: 647V cells; test: High throughput proliferation (HTP) assay; settings: read-out: CREBBP HTP IC50 (micromolar)
# Description: The following example describes methods and materials relating to a high throughput proliferation (HTP) assay. IC50 values (micromolar) are summarized in Table 1, Table 2, and Table 3 under the column labeled: “CREBBP HTP IC50 (micromolar).”
# MATERIALS: 647V cell line, Dulbecco's MEM, penicillin-streptomycin, heat inactivated fetal bovine serum, D-PBS, and CellTiter-Glo were commercially available.
# 647V adherent cells were maintained in complete growth medium (Dulbecco's MEM supplemented with 15% v/v heat inactivated fetal bovine serum) and cultured at 37° C. under 5% CO2.
# METHOD: Measurement of the effect of compound in High Throughput Proliferation (HTP) assays was performed as follows: Exponentially growing 647V cells were plated, in triplicate, in 384-well plates at the appropriate cell density in a final volume of 50 μl. Cells were incubated in the presence of increasing concentrations of compound. Viable cell number was determined at day 7 by addition of 35 μl CellTiter-Glo to each well of the plate, incubated in the dark for 30 minutes, and read on a PerkinElmer EnVision instrument to enumerate the number of cells.
# [3] = molecular target: CREBBP (1084-1701) (Homo sapiens, UniProt Q92793); test: Biochemical assay for CREBBP (1084-1701), SAMDI
# Description: The following example describes materials and methods relating to a biochemical assay for CREBBP (1084-1701). IC50 values (micromolar (μM)) are summarized in Table 1, Table 2, and Table 3 under the column labeled: “CREBBP Biochemistry IC50 (micromolar).”
# MATERIALS: Reagents 1M Tris pH 8.0, Tween 20 10%, DTT, bovine serum gelatin (BSG) 2%, Peptide #233 (biotin-H3 11-25, K14R, K23R), Acetyl-CoA, CREBBP (1084-1701), formic acid (100%), and sodium bicarbonate were commercially available.
# METHODS: The effect of compounds was measured in the following biochemical assay using CREBBP (1084-1701). Enzyme mix 30 μL per well was added using a Multi-drop to wells of prepared Compound Stock plate. The enzyme was incubated in the Compound Stock plate for 30 minutes at room temperature. Substrate mix, 20 μL per well, was added to Compound Stock plate using a Multi-drop. The plate was covered and incubate 30 minutes at room temperature. The reaction was stopped with addition of 5 μL per well of 5% formic acid using a Multi-drop. The plate was Incubated for 30 minutes at room temperature. The reaction mixture was neutralized with addition of 5 μL per well of 10% sodium bicarbonate using a Multi-drop. The plate was Incubated for 35 minutes at room temperature. The reaction mixture was Transferred 2.5 μL per well to a SAMDI biochip. The plate was Incubated for 60 minutes at room temperature. The samples were washed, dried, and matrix applied to SAMDI biochip. The SAMDI biochip was then read on the mass spectrometer.
# [4] = molecular target: EP300 (P300(1048-1664)) (Homo sapiens, UniProt Q09472); test: Biochemical assay for EP300, SAMDI; settings: read-out: EP300 Biochemistry IC50 (micromolar)
# Description: The following example describes materials and methods relating to a biochemical assay for EP300. IC50 values (micromolar (μM)) are summarized in Table 1, Table 2, and Table 3 under the column labeled: “EP300 Biochemistry IC50 (micromolar).”
# [5] = read-out: CREBBP ICW IC50 (micromolar)
# [6] = read-out: CREBBP Biochemistry IC50 (micromolar), SAMDI
# [7] = read-out: CREBBP ICW IC50, HB-CLS-2 cells
# [8] = read-out: CREBBP Biochemistry IC50, SAMDI
Structure (SMILES),"IC50 [1, 5] [µM]",IC50 [2] [µM],"IC50 [3, 6] [µM]","IC50 ([4]; EP300, SAMDI) [µM]","IC50 [1, 7] [µM]","IC50 [3, 8] [µM]","IC50 ([3]; read-out: CREBBP Biochemistry IC50 (micromolar), Peptide #233, Acetyl-CoA, SAMDI mass spectrometry) [µM]","IC50 ([4]; P300(1048-1664), Peptide #233, Ac-CoA, SAMDI mass spectrometry) [µM]"
CCn1ncc(CN(C)C(=O)c2nc(-c3cc(C(=O)NC)n(C)n3)nc3ccc(Cl)cc23)c1C [Compound 18],0.21,0.18,0.1,0.0022,–,–,–,–
CCn1ncc(CN(C)C(=O)c2nc(-c3cc(N(C)C)c4cn[nH]c4c3)nc3ccc(Cl)cc23)c1C,0.485,0.492,0.0328,0.129,–,–,–,–
CCc1ncc(CN(C)C(=O)c2cc(-c3ccc(NC4CNC4)c(C)n3)nc3ccc(Cl)cc23)n1C,0.366,0.0849,0.0172,0.0096,–,–,–,–
CCn1ncc(CN(C)C(=O)c2nc(-c3cc(C)cc(NCCNC)c3)nc3ccc(Cl)cc23)c1C,0.075,0.033,0.016,0.0087,–,–,–,–
CCc1cc(-c2nc(C(=O)N(C)Cc3cnn(CC)c3C)c3cc(Cl)ccc3n2)ccc1OCCCNC,0.47,0.15,0.022,0.087,–,–,–,–
CCn1ncc(CN(C)C(=O)c2nc(-c3cc4c(NC)[nH]nc4cc3C)nc3ccc(COC)cc23)c1C,0.0764,0.0665,0.0338,0.0132,–,–,–,–
CCn1ncc(CN(C)C(=O)c2cc(-c3ccc(NCCN(C)C)c(C)n3)nc3ccc(Cl)cc23)c1CF,0.587,0.998,0.18,0.693,–,–,–,–
CCc1cccc(-c2nc(C(=O)N(C)Cc3cnn(CC)c3C)c3cc(Cl)ccc3n2)c1,–,–,–,–,4,0.51,–,–
CCn1ncc(CN(C)C(=O)c2nc(-c3cc4c(NC)n[nH]c4cc3C)nc3ccc(Cl)cc23)c1C,0.0323,0.0242,0.0094,0.0032,–,–,–,–
CCn1ncc(CN(C)C(=O)c2nc(-c3ccc(OCCNC)c(OC)c3)nc3ccc(Cl)cc23)c1C,1.6,0.89,0.91,1.2,–,–,–,–
CCn1ncc(CN(C)C(=O)c2nc(-c3cc(NCCNC)c4nc[nH]c4c3)nc3ccc(Cl)cc23)c1C,7.87,6.4,0.168,0.854,–,–,–,–
CCn1ncc(CN(C)C(=O)c2nc(-c3cc(C)c4[nH]nc(N)c4c3)nc3ccc(Cl)cc23)c1C,0.113,0.12,0.0115,0.0235,–,–,–,–
CCn1ncc(CN(C)C(=O)c2nc(-c3cc4c(cc3C)CCN4)nc3ccc(Cl)cc23)c1C,11.8,6.73,10,4.08,–,–,–,–
CCn1ncc(CN(C)C(=O)c2nc(-c3cc(C)cc(N[C@@H]4CCNC4)c3)nc3ccc(Cl)cc23)c1C,0.088,0.0377,0.0119,0.004,–,–,–,–
CCn1ncc(CN(C)C(=O)c2nc(-c3ccc(OCC(O)CNC)c(OC)c3)nc3ccc(Cl)cc23)c1C (stereo not drawn),3.4,0.63,0.55,1.4,–,–,–,–
CCn1ncc(CN(C)C(=O)c2nc(-c3cc4[nH]ccc4cc3C)nc3ccc(Cl)cc23)c1C,0.107,0.0877,0.00487,0.0124,–,–,–,–
CCn1ncc(CN(C)C(=O)c2cc(-c3ccc(NC(C)CNC)c(C)n3)nc3ccc(Cl)cc23)c1C (stereo not drawn),0.111,0.0674,0.0339,0.0108,–,–,–,–
CCc1ncc(CN(C)C(=O)c2cc(-c3ccc(NCCN(C)C)c(F)n3)nc3ccc(Cl)cc23)n1C,0.303,0.3,0.0428,0.0513,–,–,–,–
CCn1ncc(CN(C)C(=O)c2nc(-c3cnc(Cl)s3)nc3ccc(Cl)cc23)c1C,–,–,–,–,14,7.6,–,–
CCn1ncc(CN(C)C(=O)c2nc(-c3cc4c(cc3C)CC(=O)N4)nc3ccc(Cl)cc23)c1C,0.544,1.01,0.22,0.466,–,–,–,–
CCn1ncc(CN(C)C(=O)c2cc(-c3cc(NCCNC)cc(OC)n3)nc3ccc(Cl)cc23)c1C,0.0347,0.0252,0.0418,0.0188,–,–,–,–
CCn1ncc(CN(C)C(=O)c2nc(-c3ccccc3Br)nc3ccc(Cl)cc23)c1C,–,–,–,–,0.37,0.007,–,–
CCn1ncc(CN(C)C(=O)c2nc(-c3cc4c(NC)n[nH]c4c(F)c3C)nc3ccc(Cl)cc23)c1C,–,–,–,–,–,–,50,50
CCn1ncc(CN(C)C(=O)c2cc(-c3ccc(OCCNC)c(Cl)c3)nc3ccc(C(C)(C)O)cc23)c1C,–,7.12,34.5,8.75,–,–,–,–
